Source: US10258625B2, “Method for treatment of metastatic and refractory cancers and tumors with an inducer that overcomes inhibition of T cell proliferation” (The Wistar Institute of Anatomy and Biology, priority 2015, dated 2019)

System: T cells
Test: Cytokine rescue of T cell proliferation from MEK inhibition
Format: cell-based, human
Settings: IL-2 20 U/ml, IL-7 2 ng/ml, IL-15 10 ng/ml, IL-21 100 ng/ml, IL-27 50 ng/ml, ALT-803 35.7 ng/ml
Procedure: FIG. 2A is a graph showing that IL-15 can rescue T cell functions from MEK inhibitors. A proliferation of human PBMCs activated with ConA+/−IL-2 (20 U/ml) and IL-7 (2 ng/ml) was quantified with the division index and plotted as percent of the corresponding vehicle treatment for each group. Averages from 3 independent experiments. *=P<0.05 t-test vs ConA only.
Proliferation of CD8 T cells after 7 days is shown.
Proliferation of CD8 T cells is shown.
FIG. 10 is a table that illustrates that IL-15, IL-2, and IL-7 can rescue T cell proliferation from MEK inhibition. Human PBMCs were stained with CELLTRACE reagent and activated with ConA in the presence of vehicle or GDC0973 (1.45 μM) and the indicated cytokines (IL-2=20 U/ml, IL-7=2 ng/ml, IL-15=10 ng/ml, IL-21=100 ng/ml, IL-27=50 ng/ml). Reported are percentages of cells that proliferated with GDC0973 relative to vehicle treatment with the same cytokines after 7 days. Stains are not depicted.
T cell stimulation—For human T cell proliferation assays, peripheral blood lymphocytes were obtained by leukapheresis/elutriation and Miltenyi bead-purified and K562 cells expressing human CD32 were generated as previously described^41. […] Proliferation of stimulated T cells was determined 7 days later by FACS and Division Index was calculated using FlowJo™ software.

Substance: IL-2: recombinant human IL-2 (Peprotech)
- rescue of T cell proliferation in the presence of the MEK inhibitors: able to rescue
